Antibody variant affinities, Ab-91 heavy chain, assay 2

The measurements come from Engelhart et al. 2022 (doi:10.1038/s41597-022-01779-4) through the FLAb antibody collection.

The target is the same throughout: PDVDLGDISGINAS, from the HR2 region of SARS-CoV-2 spike.

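The starting antibody came from a phage panning campaign against this peptide. Variants in AAYL51 differ from the parent at up to three CDR positions; double and triple changes were sampled at random. Affinity was read by AlphaSeq, a pooled yeast mating assay with surface-displayed partners. Binding brings cells together so that they mate, and sequencing counts the barcode pairs among the diploids. A regression on co-assayed BCL2-family reference pairs converts the normalised counts of each replicate to an apparent Kd. Each pool was mated in three replicate cultures.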

Parent: Ab-91, a human scFv built as VL, a (GGGGS)3 linker, VH. Only the CDRs of the heavy chain vary.
VL: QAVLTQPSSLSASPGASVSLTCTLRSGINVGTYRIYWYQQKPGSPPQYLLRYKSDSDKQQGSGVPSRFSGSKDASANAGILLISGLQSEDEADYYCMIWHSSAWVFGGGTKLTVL
VH: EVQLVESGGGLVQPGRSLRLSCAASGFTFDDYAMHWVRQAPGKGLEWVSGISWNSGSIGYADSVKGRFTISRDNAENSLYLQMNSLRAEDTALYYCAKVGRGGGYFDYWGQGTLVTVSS

Substitutions are numbered in sequence along the VH above, starting at 1 (not Kabat).
Every variant below is changed at D31 of the VH (sequential numbering).
The read-out is the apparent dissociation constant on a log10 scale (nM): the lower, the stronger.
The mean shown is taken over the replicates in which the pair was detected.
Where no diploid with the target was found in any replicate, the entry reads "no signal": below detection, most likely a poor binder, though not proof of it.
Empty control strains, which show no peptide, gave a signal in 21% of pairings with library AAYL51; the median was 4.54 and 95% of these signals were weaker than 3.26. No background was subtracted.

changes	mean log10 Kd (nM)	seen in
D31C/K65A/G103R	no signal	0/3
D31L/Y105P	no signal	0/3
D31W/V99K/G104V	no signal	0/3
D30Q/D31Q	4.46	2/3
D31S/S52V/S55V	2.71	1/3
D31I/M34A/G56H	no signal	0/3
D31V/I58Y/V99W	no signal	0/3
G26Y/D31M/A61E	4.37	1/3
F27Y/D31H/G56H	1.25	3/3
F27Y/D30I/D31G	4.09	1/3
F29P/D31L/D107T	no signal	0/3
D31W/G50D	2.92	1/3
D31I/Y32L/G100S	4.40	1/3
D31V/Y32C/S63M	4.22	2/3
D31I/H35E/V99Y	5.89	1/3
F27N/D31W/W53A	no signal	0/3
D31S/I51L/I58F	2.14	3/3
D30S/D31K/G100R	4.51	2/3
D31K/A33L/G50M	no signal	0/3
D31R/K65P/G100D	4.59	2/3
D31G/R101N/Y108C	no signal	0/3
D31H/S55D/V99D	no signal	0/3
D30A/D31E/S55N	2.73	3/3
D31Q/G56C/G104M	5.66	1/3
G26D/D31C/S57F	4.81	1/3
D31I/G56V/V99M	no signal	0/3
D31F/I51G/S63D	4.10	1/3
D31K/A61L/G102F	2.32	1/3
D30I/D31I/G104W	no signal	0/3
D31I/I58H/V64I	no signal	0/3
D31I/H35G/F106E	no signal	0/3
D31I/Y60K	no signal	0/3
D31C/H35F/S57F	no signal	0/3
D31S/Y32Q/D107M	no signal	0/3
D31A/Y32V/S57M	1.09	3/3
D31H/S52T/D62G	3.43	3/3
G26Q/D31I/G104Q	5.14	1/3
D31V/G59Y/S63W	4.91	2/3
D31N	1.00	3/3
T28F/D31A/Y108W	4.20	1/3
D31K/M34V/V99Y	no signal	0/3
F27L/D31N/A61Q	3.48	3/3
D31P/S52C/D107I	6.12	1/3
F27K/D31Q/R101Q	2.16	3/3
G26S/D31E/S63P	4.84	1/3
F27W/D31S/M34Y	no signal	0/3
D31N/I51G/N54P	5.00	1/3
D31E/D107Q	3.03	2/3

Excerpt, the final 7 entries:

changes,mean log10 Kd (nM),seen in
F27L/D31N/A61Q,3.48,3/3
D31P/S52C/D107I,6.12,1/3
F27K/D31Q/R101Q,2.16,3/3
G26S/D31E/S63P,4.84,1/3
F27W/D31S/M34Y,no signal,0/3
D31N/I51G/N54P,5.00,1/3
D31E/D107Q,3.03,2/3

For reference, the parent read 1.86 as the reference entry and 0.88 as a member of this library.